Reference: patent US11530216B2, “Deuterated colony stimulating factor-1 receptor (CSF-1R) inhibitors” (Genzyme Corporation, priority 2020, dated 2022)

Columns and labels:
[1] = test system: MCP-1 production in BV2 murine microglial cells; test: MCP-1 ELISA, BV2 microglial cells after CSF-1 stimulation; assay type: cell-based, mouse; conditions: 3.125-400 nM, 100 ng/mL M-CSF 24 hours
Method: To compare the impact of a CSF-1R inhibitory compound and a deuterated CSF-1R inhibitory compound of this disclosure on cytokine/chemokine production following CSF-1 stimulation, the following experiments were conducted in BV2 murine microglial cells.
Two different passages of BV2 mouse microglial cells were plated in different 96-well plates to provide biological quadruplicates.
Both test compounds were prepared in diluted stock solution (10 mM) with culture media to get a 100 μM working solution and treated at 3.125 nM, 6.25 nM, 12.5 nM, 25 nM, 50 nM, 100 nM, 200 nM or 400 nM.
BV2 mouse microglia were suspended at a concentration of 5×10^5 cells/mL and 100 μL of this cell suspension was added to each well of a 96-well plate. Microglia cells were allowed to rest overnight at 37° C., 5% CO2. […] Cells were then stimulated with 100 ng/mL recombinant mouse M-CSF for 24 hours. […]
Culture supernatants were assayed with the Quantikine Mouse MCP-1 ELISA kit from R&D Systems. […] After incubation, the acid stop solution was added to each well, and the plate was read on the ELISA plate reader at 450 nm.
BV2 murine microglia were plated at 50,000 cells per well and rested overnight. […] Percent inhibition was calculated based upon unstimulated and stimulated controls and IC50 curves were generated.

primary murine microglia = test: Immunostaining of primary microglia (Iba1+ area, DAPI+ nuclei) after CSF-1 stimulation; assay type: cell-based, mouse
Method: Primary mouse microglia were suspended at a concentration of 5×10^5 cells/mL and 100 μL of this cell suspension was added to the inner 60 wells of three 96-well plates. Microglia cells were allowed to rest overnight at 37° C., 5% CO2. […] Cells were then stimulated with 100 ng/mL recombinant mouse CSF-1 for 24 hours. After stimulation, the culture supernatant was removed from each well and aliquoted into two different 96-well plates for subsequent ELISA assays. Plates were fixed with 4% PFA for future immunocytochemistry analysis. Following the stimulation, cells were fixed with 4% PFA for 20 minutes at room temperature. Cells were then rinsed in PBS, washed 3×5 minutes in 0.2% PBT (0.2% Triton X-100 in PBS) and blocked with 10% donkey serum/0.2% PBT for 1 hour at room temperature. […] The average value per field in each well (typically 6-9 fields per well as certain fields excluded due to staining artifact) was calculated for each technical triplicate and normalized to the average of the DMSO control wells. […] InCell imaging microsope and analysis software was used to quantify Iba1^+ area, and the number of DAPI^+ nuclei within the cultures. Ki67 could not be quantified because condensation during ICC cross-transferred Ibalantibody into Ki67 wells. […]

[2] = test system: MCP-1 production in primary murine microglial cells; test: MCP-1 ELISA, primary mouse microglia after CSF-1 stimulation; assay type: cell-based; conditions: 3.125-400 nM, 100 ng/mL CSF-1 24 hours
Method: To compare the effect of two CSF-1R inhibitory compounds and one deuterated CSF-1R inhibitory compound of this disclosure on microglial cytokine/chemokine production following CSF-1 stimulation, the following experiment was conducted in primary murine microglial cells. All test compounds were prepared in diluted stock solution (10 mM) with culture media to get a 100 μM working solution and treated at 3.125 nM, 6.25 nM, 12.5 nM, 25 nM, 50 nM, 100 nM, 200 nM or 400 nM. Primary mouse microglia were suspended at a concentration of 5×10^5 cells/mL and 100 μL of this cell suspension was added to the inner 60 wells of three 96-well plates. Microglia cells were allowed to rest overnight at 37° C., 5% CO2. […] Cells were then stimulated with 100 ng/mL recombinant mouse CSF-1 for 24 hours. After stimulation, the culture supernatant was removed from each well and aliquoted into two different 96-well plates for subsequent ELISA assays. Plates were fixed with 4% PFA for future immunocytochemistry analysis. Culture supernatants were assayed with the Quantikine Mouse MCP-1 ELISA kit (R&D Systems, cat #SMJE00B). […] After incubation, the acid stop solution was added to each well, and the plate was read on the FlexStation3 Multi-Mode Microplate Reader (Molecular Devices, cat #Flex3) with SoftMax Pro Software at 450 nm. […] MCP-1 secretion was assessed after 24 hours utilizing R&D MCP-1 Elisa Kit. […]

Row | Structure (SMILES) | MCP-1 production [1] | Iba1+ area (primary murine microglia; CSF-1 stimulation increases Iba1+ area) | number of cells (DAPI+ cells) (primary murine microglia; CSF-1 stimulation increases cell number) | MCP-1 production [2]
1 | COc1ccc(C2Oc3c(OC)cc(Cn4cnc5cccnc54)cc3O[C@H]2C)cn1 (some centres unmarked) [Compound 24] | significantly reduced MCP-1 production in a concentration dependent manner | – | – | –
2 | [2H]c1nc2cccnc2n1Cc1cc(OC)c2c(c1)O[C@@H](C)[C@H](c1ccc(OC)nc1)O2 [Compound 6, 3-(((2S,3S)-8-methoxy-2-(6-methoxypyridin-3-yl)-3-methyl-2,3-dihydrobenzo[b][1,4]dioxin-6-yl)methyl)-3H-imidazo[4,5-b]pyridine-2-d] | significantly reduced MCP-1 production in a concentration dependent manner | significantly abrogated this effect in a concentration dependent manner | reduce this number in a concentration dependent manner | significantly reduced MCP-1 production in a concentration dependent manner
